This note sets out measurements from patent publication US20230043948A1, “METHOD AND KIT FOR CELL GROWTH” (PRECISION CANCER TECHNOLOGIES INC ., priority 2019, published 2023).

Entries after “also recorded” stand apart in the source; their conditions may differ.

For experiment [1], the system named is lung cancer cells overexpressing the EGFR receptor (PDX). The experiment in a line: ex vivo drug testing of lung cancer cells overexpressing EGFR in 3D hydrogel. In kind it is cell-based, human. Particulars: responder conditions of example 1a (hydrogel without any RGD motif); FIG. 1e.
Experiment [2] has as its system pancreatic ductal adenocarcinoma (PDAC) cancer model PAXF736. In words: in vivo treatment of PDX PDAC model. Also noted: species or system human. The protocol:
(§1) Pancreatic ductal adenocarcinoma (PDAC) cancer cells from a patient were first expanded in mice as a PDX model. The PDX-derived cells were grown in a range of extracellular matrix conditions.

Experiment [3] has as its system PDX cells of pancreatic ductal adenocarcinoma (PDAC) cancer model PAXF736. In words: ex vivo drug sensitivity of PDX PDAC cells in different gels. In kind it is cell-based, human. The protocol:
as §1
A PEG was used as a hydrogel precursor molecule for making a non self-degradable hydrogel. As a crosslinking agent, peptides containing at least two, preferably two cysteine moieties were used which varied in their amino acid sequence, in particular with respect to the presence or absence of a RGD adhesion motif and with respect to the presence or absence of a MMP degradation sequence. A further variation that was made to some hydrogels was the attachment of a bioactive ligand comprising a RGD or a cyclic RGD adhesion motif, or alternatively a bioactive ligand comprising a DGEA motif. An array of hydrogels varying in the above preselected features was established, by the method described above.
The mechanical properties of the hydrogels were also varied (hard (2000-3000 Pa), medium (1000-2000 Pa) or soft (50-1000 Pa) gels).
A variety of different known, commonly employed and/or commercially available culture media was used.
In FIG. 2a and FIG. 2b, the results are shown for a soft non self-degradable PEG hydrogel with a crosslinking moiety without RGD motif, and with a bioactive ligand comprising a RGD adhesion motif (example 2a), as well as for a soft non self-degradable PEG hydrogel with a crosslinking moiety with RGD motif, and with a bioactive ligand comprising a DGEA adhesion motif (example 2b). For comparison, tests were also conducted in the undefined natural-derived matrix Matrigel® (comparative example 2).

For the substance Cetuximab, the “drug response (effect of treatment)” value in experiment [1] is given as “clear effect”. Also, in experiment [2], the “tumor growth in vivo” value was “reduces the tumor growth”. Further, the drug sensitivity result in experiment [3] (Matrigel (comparative example 2)) is “no effect”; in experiment [3] (hydrogel of example 2a (soft, crosslinker without RGD, RGD ligand), FIG. 2b), “comparable to that of Matrigel®; also recorded: much lower”; in experiment [3] (hydrogel of example 2b (soft, crosslinker with RGD, DGEA ligand), FIG. 2b) it was “much higher drug sensitivity”.
